Our source for the IMAX % and IC50 values is PMC4655192 (Neuropharmacology, 2015).

Each structure is given as a SMILES string. Where “and” joins values, the source holds several entries; their conditions need not be identical. Equal values may be shown once.

Test [1] has as its system KOR-KO striatal membranes.
The subject of test [2] is MOR-KO striatal membranes.

As for `NC(N)=Nc1ccc2[nH]c3c(c2c1)C[C@@]1(O)[C@H]2Cc4ccc(O)c5c4[C@@]1(CCN2CC1CC1)[C@H]3O5` [5′-GNTI, 5′-guanidinonaltrindole], the IMAX % in the test on WT striatal membranes is 96 ± 5% and 100 ± 9%; in test [1], 120 ± 3% and 100 ± 13%; in test [2], 93 ± 10% and 87 ±10%.

Turning to `Oc1ccc2c3c1O[C@H]1c4[nH]c5c(c4C[C@@]4(O)[C@@H](C2)N(CC2CC2)CC[C@]314)C[C@@]1(O)[C@H]2Cc3ccc(O)c4c3[C@@]1(CCN2CC1CC1)[C@H]5O4` [NorBNI, Norbinaltorphimine], the IC50 (as a rule, the midpoint of a concentration-inhibition curve) in test [1] (vs 1 μM DynB(1-9), KOR-KO) was found to be 0.0453 ± 0.0101 µM. The compound further gave an IMAX % in test [2] of 99 ± 5%.
